According to ChEMBL document CHEMBL3046894, “Synthesis and Herbicidal Activity of Pyrimidinyl Salicylic and Thiosalicylic Acids” (J Pestic Sci, 1996):
The source made the active and inactive calls. No cut-off for these calls is given here.

How the values were obtained:
Ipomoea lacunosa [1] = assay: Post-emergence herbicidal activity against Ipomoea lacunosa assessed as mortality at 100 g a.i/10 a applied 11 days after germination as foliar spray
Ipomoea lacunosa [2] = assay: Post-emergence herbicidal activity against Ipomoea lacunosa assessed as mortality at 200 g a.i/10 a applied 11 days after germination as foliar spray
Xanthium strumarium [3] = assay: Post-emergence herbicidal activity against Xanthium strumarium (cocklebur) assessed as mortality at 100 g a.i/10 a applied 11 days after germination as foliar spray
Xanthium strumarium [4] = assay: Post-emergence herbicidal activity against Xanthium strumarium (cocklebur) assessed as mortality at 200 g a.i/10 a applied 11 days after germination as foliar spray
Abutilon theophrasti [5] = assay: Post-emergence herbicidal activity against Abutilon theophrasti (velvetleaf) assessed as mortality at 100 g a.i/10 a applied 11 days after germination as foliar spray
Abutilon theophrasti [6] = assay: Post-emergence herbicidal activity against Abutilon theophrasti (velvetleaf) assessed as mortality at 200 g a.i/10 a applied 11 days after germination as foliar spray
Echinochloa crus-galli [7] = assay: Post-emergence herbicidal activity against Echinochloa crus-galli (barnyard grass) assessed as mortality at 100 g a.i/10 a applied 11 days after germination as foliar spray
Echinochloa crus-galli [8] = assay: Post-emergence herbicidal activity against Echinochloa crus-galli (barnyard grass) assessed as mortality at 200 g a.i/10 a applied 11 days after germination as foliar spray

Structure (SMILES): C[As](=O)(O)O
- mortality (Ipomoea lacunosa [1]): < 5%
- Activity (Ipomoea lacunosa [2]): Active
- Activity (Xanthium strumarium [3]): inactive
- Activity (Xanthium strumarium [4]): Active
- mortality (Abutilon theophrasti [5]): < 5%
- Activity (Abutilon theophrasti [6]): inactive
- Activity (Echinochloa crus-galli [7]): Active
- Activity (Echinochloa crus-galli [8]): Active
